{"sequences": {"note": "The chains behind the UniProt entries cited, without tags or fusion partners.", "UniProt P08908, whole entry": "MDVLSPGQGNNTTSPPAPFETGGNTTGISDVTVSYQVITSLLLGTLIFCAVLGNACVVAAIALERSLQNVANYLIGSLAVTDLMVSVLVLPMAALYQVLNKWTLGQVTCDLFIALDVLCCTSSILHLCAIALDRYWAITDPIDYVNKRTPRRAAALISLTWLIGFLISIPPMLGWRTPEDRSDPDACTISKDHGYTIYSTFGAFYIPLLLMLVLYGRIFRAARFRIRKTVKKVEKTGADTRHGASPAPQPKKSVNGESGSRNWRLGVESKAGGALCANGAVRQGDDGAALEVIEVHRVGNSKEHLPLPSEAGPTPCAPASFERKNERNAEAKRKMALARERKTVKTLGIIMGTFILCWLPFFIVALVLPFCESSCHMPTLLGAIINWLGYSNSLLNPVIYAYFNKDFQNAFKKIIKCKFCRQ", "UniProt P31652, whole entry": "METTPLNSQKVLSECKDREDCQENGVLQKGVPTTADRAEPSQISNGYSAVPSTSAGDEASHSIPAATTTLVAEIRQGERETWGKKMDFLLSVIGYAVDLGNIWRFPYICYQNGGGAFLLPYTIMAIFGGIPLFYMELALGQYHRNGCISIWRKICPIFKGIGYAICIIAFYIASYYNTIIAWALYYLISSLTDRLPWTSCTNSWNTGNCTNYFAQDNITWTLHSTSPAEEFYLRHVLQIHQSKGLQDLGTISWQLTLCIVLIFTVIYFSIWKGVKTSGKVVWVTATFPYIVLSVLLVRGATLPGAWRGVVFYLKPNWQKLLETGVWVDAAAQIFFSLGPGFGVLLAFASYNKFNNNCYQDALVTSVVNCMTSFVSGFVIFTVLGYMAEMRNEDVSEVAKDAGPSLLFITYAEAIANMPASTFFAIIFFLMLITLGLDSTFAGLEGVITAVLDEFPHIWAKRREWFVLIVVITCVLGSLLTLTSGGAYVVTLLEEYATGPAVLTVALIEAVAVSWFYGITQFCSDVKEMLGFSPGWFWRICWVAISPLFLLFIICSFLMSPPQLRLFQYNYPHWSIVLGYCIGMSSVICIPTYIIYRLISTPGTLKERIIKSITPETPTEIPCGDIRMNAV"}, "source": "patent EP1140925B1", "about": "“(3,4 DIHYDRO-2H-BENZO[1,4] OXAZINYL-METHYL)- 3-(1H-INDOL-3- YL)-ALKYL -AMINES” (Wyeth, priority 1999, dated 2000)", "key": {"human 5-HT1A receptor": {"biological_target": "T1, human 5-HT1A receptor (Homo sapiens, UniProt P08908)", "T1 construct": "expressed in transfected cells", "test": "5-HT1A receptor binding assay with [3H]8-OH-DPAT in CHO cell membranes", "protocol": "A stable Chinese hamster ovary cell line expressing the human 5-HT1A receptor subtype (5H-HT1A.CHO cells) was employed throughout this procedure. Cells were maintained in DMEM supplemented with 10% fetal calf serum, non-essential amino acids and penicillin/ streptomycin.\nCells were grown to 95-100% confluency as a monolayer before membranes were harvested for binding studies. Cells were gently scraped from the culture plates, transferred to centrifuge tubes, and washed twice by centrifugation (at 2000 rpm for 10 min., 4°C) in buffer (50 mM Tris; pH 7.5). The resulting pellets were aliquoted and stored at -80•C until needed. On the day of assay, the cells were thawed on ice, and resuspended in buffer. Studies were conducted using [^3H]8-OH-DPAT as the radioligand. The binding assay was performed in 96 well microtiter plates in a final total volume of 250 µL of buffer. […] Non-specific binding was determined in the presence of 10 µM 5HT. Saturation analysis was conducted by using [^3H]8-OH-DPAT at concentrations ranging from 0.3-30 nM. Following a 30 minute incubation at room temperature, the reaction was terminated by the addition of ice cold buffer and rapid filtration using a M-96 Brandel Cell Harvester through a GF/B filter presoaked for 30 minutes in 0.5% polyethyleneimine."}, "serotonin transporter": {"biological_target": "T2, serotonin transporter (Rattus norvegicus, UniProt P31652)", "T2 construct": "frontal cortical membranes prepared from male Sprague-Dawley rats; from tissue; host or cells: frontal cortex membranes of male Sprague-Dawley rats", "test": "Serotonin transporter affinity, 3H-paroxetine binding to frontal cortical membranes", "parameters": "species or system Sprague-Dawley rats", "conditions": "3H-paroxetine 0.1 nM, head also allows % Inh. @.1 µM"}, "[1]": {"conditions": "[3H]8-OH-DPAT 1.5 nM, membranes of CHO cells expressing human 5-HT1A receptor, read-out: 5-HT1A (Ki)"}}, "note": "Read-outs that look alike come from different tables or passages of the source.", "data": [{"compound": "Fc1ccc2[nH]cc(CCCNCC3CN(c4ccccc4)c4ccccc4O3)c2c1", "note": "(single isomer, unassigned; (+)) [Example 19]", "values": [{"measurement": "Ki", "setting": "human 5-HT1A receptor; [1]", "value": 63.4, "unit": "nM"}]}, {"compound": "Fc1ccc2[nH]cc(CCCNCC3CN(c4ccccc4)c4ccccc4O3)c2c1", "note": "(single isomer, unassigned; (-)) [Example 18]", "values": [{"measurement": "Ki", "setting": "human 5-HT1A receptor; [1]", "value": 18.1, "unit": "nM"}]}, {"compound": "c1ccc(N2CC(CNCCCc3c[nH]c4ccccc34)Oc3ccccc32)cc1", "note": "(centres unmarked) [Example 7, [3-(1H-Indol-3-yl)-propyl]-4-phenyl-3,(4-dihydro-2H-benzo[1,4]oxazin-2-yl-methyl)-amine]", "values": [{"measurement": "Ki", "setting": "serotonin transporter; ST (Ki, nM, % Inh. @.1 µM)", "value": 23, "unit": "nM"}]}, {"compound": "Fc1ccc2[nH]cc(CCCNCC3CN(c4ccccc4)c4ccccc4O3)c2c1", "note": "(centres unmarked) [Example 11, [3-(5-Fluoro-1H-indol-3-yl)-propyl]-(4-phenyl-3,4-dihydro-2H-benzo[1,4]oxazin-2-yl-methyl)-amine]", "values": [{"measurement": "Ki", "setting": "human 5-HT1A receptor; 5-HT1A (Ki, nM)", "value": 7.14, "unit": "nM"}]}, {"compound": "Fc1ccc2[nH]cc(CCCNCC3COc4ccccc4N3)c2c1", "note": "(centres unmarked) [Example 20, (3,4-Dihydro-2H-benzo[1,4]oxazin-3-yl-methyl)-[3-(5-fluoro-1H-indol-3-yl)propyl]-amine]", "values": [{"measurement": "Ki", "setting": "serotonin transporter; read-out: ST (Ki, nM, % Inh. @.1 µM)", "value": 23, "unit": "nM"}]}]}
